# Compounds with a hit are over-represented: about 13% of the library has one in this group of screens.
# G9a inh – G9a (human) methyltransferase inhibition. Q96KQ7. G9a H3K9 monomethylation, AlphaScreen, 2 h. hit rate 8.8% among 350,000. Potency, µM (doses to about 102 µM), most hits filed as inhibitors; further: nearly all actives have a fitted effect of over 75% in size
#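 Using a bead-based AlphaScreen, monomethylated H3K9 product from 2 h room-temperature reactions (G9a 20 nM, peptide 500 nM, SAM 20 uM) was detected with 0.5 ug/mL rabbit anti-H3K9me1 antibody.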
# Sfp inh – blocks B. subtilis Sfp PPTase activity. Q9F4F7. Biochemical Sfp PPTase activity, qHTS. Potency, µM, most hits filed as inhibitors. hit rate 3.5% among 310,000;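 further: the enzyme is Sfp with the accession as filed and its product quenches rhodamine fluorescence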
#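 Compounds were incubated with enzyme (final 15 nM) for 15 min at room temperature before substrate addition started the reaction. Fluorescence at 525 nm excitation, 598 nm emission was recorded immediately and after 30 minutes.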
# JMJD2E inh – JMJD2E (human) inhibition; B2RXH2; JMJD2E catalytic domain, FDH-coupled NADH fluorescence (FDH is formaldehyde dehydrogenase); Potency, µM (titrated, usually from 57.1 µM), actives largely listed as inhibitors; hit rate 1.6% among 230,000; AID 2147; active means well fitted inhibition curve with a large enough effect, not every such curve was filed as active; inconclusive means small, poorly fitted or top-dose-only effect, or another doubt; inactive means no such curve, though single readings can be large or run the other way; further: nearly all actives have a fitted effect of over 50% in size
# ALDH1A1 block – ALDH1A1 (human) enzyme inhibition | hit rate 7.3% among 220,000 | Potency, µM (series often up to 75.3 µM), usual class: inhibitors | Purified ALDH1A1, NADH fluorescence, propionaldehyde substrate | AID 1030; active means well fitted inhibition curve with a large enough effect, not every such curve was filed as active; inconclusive means small, poorly fitted or top-dose-only effect, or another doubt; inactive means no such curve, though single readings can be large or run the other way
# LMNA splice mod – changes lamin A minigene splicing in HeLa cells; HeLa LMNA splicing GFP/RFP minigene ratio, 48 h; Potency, µM (series often up to 46.1 µM), usual class: inhibitors; hit rate 0.01% among 200,000; AID 1487; active means well fitted inhibition curve with a large enough effect in the signal ratio, with a control signal flat, not every such curve was filed as active; inconclusive means small, poorly fitted or top-dose-only effect, or effect the other way, or a change in a side signal; the % refers to the signal ratio
#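 S3 HeLa cells stably expressing lamin A-EGFP splicing minigene plus DsRed2, 600 cells/well, 48 h compound exposure at 37C. Laser-scanning cytometry; analysed as GFP (500-530 nm)/RFP (575-640 nm) total intensity ratio; 0.5% DMSO vehicle.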
# miR-21 FLuc – miR-21 reporter, rising signal | HeLa miR-21 FLuc reporter, luciferase, 48 h | Potency, µM (highest dose often 38.3 µM) | 340,000 tested, under 10 active | AID 2288; active = well fitted rising curve with a large enough effect; inconclusive = small, poorly fitted or top-dose-only effect; inactive = no such curve, though single readings can be large or run the other way;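 further: miR-21 action dims this reporter so a rising signal means less miR-21 action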
#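 Compounds were titrated across several concentrations (up to approximately 40 uM) and incubated 48 hours with HeLa miR-21-FLuc reporter cells (miR-21 target sequence downstream of FLuc, endogenous miR-21). Readout was firefly luciferase luminescence after lytic detection reagent.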
# Hits are given with their value; 0 = inactive; ? = inconclusive; - = no result; ! = not active in a repeat; [ ] = dose if it differs, or a comment. Unless noted, the call rests on the fitted dose curve; in most records, active means well fitted curve in the direction sought with a large enough effect; inconclusive means small, poorly fitted or top-dose-only effect, or another doubt; inactive means no such curve, though single readings can be large; an effect the other way counts as inactive or inconclusive.
SMILES,G9a inh,Sfp inh,JMJD2E inh,ALDH1A1 block,LMNA splice mod,miR-21 FLuc
Cc1cn2c(=O)cc(COC(=O)c3ccc(NC(=O)COc4ccccc4C)cc3)nc2s1,0[12.7 µM],-,-,-,0,0
O=C(NCCCl)NNc1c(Cl)cc(Cl)cc1Cl,?,0,0,0,?,0
CCCCNC(=S)NNc1c(Cl)cc(Cl)cc1Cl,25.1µM,0,0,0,0,0
Cc1cc(C)c(S(=O)(=O)/N=C2/C=C(Sc3ncn[nH]3)C(=O)c3ccccc32)cc1C,1.41µM,1µM,0,1.78µM,?,?
CCN(c1ccccc1)S(=O)(=O)c1ccc(Cl)c(NC(=O)CSc2ncn[nH]2)c1,?,0,0,0,0,0
CCCNC(=O)C1CCC(Cn2c(=O)c3sccc3n(CC(=O)NCc3cccc(OC)c3OC)c2=O)CC1 (stereo not given),0,-,-,-,-,0
O=C(OCc1cc2ccccc2[nH]c1=O)c1cccs1,20µM,0,?,0,0,0
CN1CCN(CC(=O)N2c3ccccc3C(=O)Nc3cccnc32)CC1,29.9µM!,0,0,0,?,0
CCCN(CCC)C[C@@H]1CCCCN1CCNC(=O)N1c2ccccc2C(=O)Nc2cccnc21,-,0,0,0,-,-
COC(=O)/C=C1\SC(N2CCOCC2)=C(c2ccc(OC)cc2)C1=O,2µM,0,0,7.94µM,0,0
COc1ccc(C(=O)NN2CCOCC2)cc1,-,0,-,-,-,0
COc1ccc2c(C)cc3n[nH]c(=S)n3c2c1,1µM,15.8µM,?,?,-,0
COc1ccc2c(C)cc(=O)[nH]c2c1,0,0,?,0,0,0
C=CCOc1ccc(/C=C\c2nc(O)c([N+](=O)[O-])c(=O)[nH]2)cc1OC,79.4µM,0,-,-,-,0
NS(=O)(=O)c1ccc(NC(=S)NC(=O)/C=C/c2ccco2)cc1,?,20µM,0,?,0,0
CC(=O)c1ccc(NC(=S)NC(=O)/C=C/c2ccco2)cc1,44.7µM,0,-,-,-,0
O=C(/C=C/c1ccco1)NC(=S)Nc1ccccc1,0[0.501 µM],0,-,-,-,0
O=C1CCc2cc(S(=O)(=O)NC(C(=O)Nc3ccc(F)cc3)c3ccccc3)ccc2N1 (stereo not given),0,-,-,-,-,0
CCn1c(SCC(=O)N2CCCCC2C)nnc1-c1ccco1 (stereo not given),35.5µM,0,-,-,-,0
COCCCn1c(SCC(=O)NC2CCCC2)nnc1-c1ccco1,0[12.7 µM],0,0,12.6µM,0,0
CCn1c(SCC(=O)N2CCCc3ccccc32)nnc1-c1ccco1,0,0,0,22.4µM,0,0
Cc1ccc(C(=O)CSc2nnc(-c3ccco3)n2CC2CCCO2)cc1 (stereo not given),11.2µM,?,0,?,0,0
CC1CCCCN1C(=O)CSc1nnc(-c2ccco2)n1C (stereo not given),0,0,-,-,-,0
CC(C)(C)OC(=O)N1CCC(c2c(C(=O)Nc3ccc4c(c3)OCCO4)cnn2-c2ccc(F)cc2F)CC1,?,-,-,-,?,0
COc1ccccc1NC(=O)C1=C(C)Nc2nc(SCc3ccccc3)nn2C1c1cccc(O)c1 (stereo not given),0,-,-,-,-,?
SMILES,G9a inh,Sfp inh,JMJD2E inh,ALDH1A1 block,LMNA splice mod,miR-21 FLuc
CC1CCCCN1C(=O)CSc1nnc(-c2ccco2)n1CC1CCCO1 (stereo not given),14.1µM,0,0,?,0,0
COCCCn1c(SCC(=O)N2CCCCC2C)nnc1-c1ccco1 (stereo not given),0[2.33 µM],?,0,?,0,0
CCn1c(SCC(=O)c2ccc(C)cc2)nnc1-c1ccoc1C,50.1µM,79.4µM,0,?,0,0
COCCCNC(=O)C1CCC(CNS(=O)(=O)c2ccc(Cl)cc2)CC1 (stereo not given),0,0,0,0,0,0
CCn1c(SCc2nc(-c3ccccc3)no2)nnc1-c1cccs1,0,0,0,0,0,0
CCn1c(SCc2nc(-c3ccccc3)no2)nnc1-c1ccco1,?,79.4µM,0,?,0,0
c1ccc(-n2c(SCc3nc(-c4cccs4)no3)nnc2-c2ccco2)cc1,?,0,?,7.08µM,0,0
c1ccc(-n2c(SCc3ccncc3)nnc2-c2ccco2)cc1,?,28.2µM,?,10µM,?,0
c1ccc(-c2noc(CSc3nnnn3C3CCCCC3)n2)cc1,0,0,0,3.16µM,0,0
